Test: soluble on expression in E. coli; label from the status in PepcDB or PDB records

Sequence	soluble on expression in E. coli
GSPGHMSGFRDFLLKPELLRAIVDCGFEHPSEVQHECIPQAILGMDVLCQAKSGMGKTAVFVLATLQQLEPVTGQVSVLVMCHTRELAFQISKEYERFSKYMPNVKVAVFFGGLSIKKDEEVLKKNCPHIVVGTPGRILALARNKSLNLKHIKHFILDEADKMLEQLDMRRDVQEIFRMTPHEKQVMMFSATLSKEIRPVCRKFMQDPMEIFVDDETKLTLHGLQQYYVKLKDNEKNRKLFDLLDVLEFNQVVIFVKSVQRCIALAQLLVEQNFPAIAIHRGMPQEERLSRYQQFKDFQRRILVATNLFGRGMDIERVNIAFNYDMPEDSDTYLHRVARAGRFGTKGLAITFVSDENDAKILNDVQDRFEVNISELPDEIDISSYIEQTR	soluble
GVEIETISPGDGRTFPKKGQTCVVHYTGMLQNGKKFDSSRDRNKPFKFRIGKQEVIKGFEEGAAQMSLGQRAKLTCTPDVAYGATGHPGVIPPNATLIFDVELLNLE	soluble
MAASRRLMKELEEIRKCGMKNFRNIQVDEANLLTWQGLIVPDNPPYDKGAFRIEINFPAEYPFKPPKITFKTKIYHPNIDEKGQVCLPVISAENWKPATKTDQVIQSLIALVNDPQPEHPLRADLAEEYSKDRKKFCKNAEEFTKKYGEKRPVD	soluble
MAKGQSLQDPFLNALRRERVPVSIYLVNGIKLQGQIESFDQFVILLKNTVSQMVYKHAISTVVPSRPVSHHSNNAGGGTSSNYHHGSSAQNTSAQQDSEETE	soluble
MGHHHHHHSHMFQRLNKMFVGEVSSSSNQEPEFNEKEDDEWILVDFIDTCTGFSAEEEEEEEDISEESPTEHPSVFSCLPASLECLADTSDSCFLQFESCPMEESWFITPPPCFTAGGLTTIKVETSPMENLLIEHPSMSVYAVHNSCPGLSEATRGTDELHSPSSPRVEAQNEMGQHIHCYVAALAAHTTFLEQPKSFRPSQWIKEHSERQPLNRNSLRRQNLTRDCHPRQVKHNGWVVHQPCPRQYNY	not soluble
MTSRRDWQLQQLGITQWSLRRPGALQGEIAIAIPAHVRLVMVANDLPALTDPLVSDVLRALTVSPDQVLQLTPEKIAMLPQGSRCNSWRLGTDEPLSLEGAQVASPALTELRANPTARAALWQQICTYEHDFFPRND	not soluble
QGEIAIAIPAHVRLVMVANDLPALTDPLVSDVLRALTVSPDQVLQLTPEKIAMLPQGSHCNSWRLGTDEPLSLEGAQVASPALTDLRANPTARAALWQQICTYEHDFFPRND	soluble
SKGQQKTAETEEGTVQIQEGAVATGEDPTSVAIASIQSAATFPDPNVKYVFRTENGGQVMYRVIQVSEGQLDGQTEGTGAISGYPATQSMTQAVIQGAFTSDDAVDTEGTAAETHYTYFPSTAVGDGAGGTTSGSTAAVVTTQGSEALLGQATPPGTGQFFVMMSPQEVLQGGSQRSIAPRTHPYSPKSEAPRTTRDEKRRAQHNEVERRRRDKINNWIVQLSKIIPDCSMESTKSGQSKGGILSKACDYIQELRQSNHRLSEELQGLDQLQLDNDVLRQQVEDLKNKNLLLRAQLRHHGLEVVIKNDSN	soluble
SRDIRFANHETLQVIYPYTPQNDDELELVPGDFIFMSPMEQTSTSEGWIYGTSLTTGCSGLLPENYITKADECSTWIFHGS	soluble

Source: the DeepSol protein solubility set
